According to patent US10639276B2, “Liposomes with ginsenoside as membrane material and preparations and use thereof” (SHANGHAI GINPOSOME PHARMATECH CO., LTD., priority 2015, dated 2020):

Assays:
Assay in all cases: Cell survival rate, cell experiment in vitro (MTT)
[1] = tested on: paclitaxel-resistant human pancreatic cancer cell line (BxPC-3/T); format: cell-based; conditions: C (μM): Taxol + Rg5 100 + 600; Taxol 100; Blank Rg5 600
Method: The new recovery BxPC-3 cells were cultured for two generations or three generations under conventional conditions to make the cells grow stably.

[2] = tested on: human ovarian cancer cell line (A2780); conditions: C (μM): Taxol + Rg5 0.003906 + 0.02343; Taxol 0.003906; Blank Rg5 0.023438; Abraxane 0.003906
[3] = tested on: paclitaxel-resistant human ovarian cancer cell line (A2780/T)

CC(=O)O[C@H]1C(=O)[C@@]2(C)[C@H]([C@H](OC(=O)c3ccccc3)[C@]3(O)C[C@H](OC(=O)[C@H](O)[C@@H](NC(=O)c4ccccc4)c4ccccc4)C(C)=C1C3(C)C)[C@]1(OC(C)=O)CO[C@@H]1C[C@@H]2O [Taxol, paclitaxel]
Cell Viability [1]: 0.166 | Cell Viability [2]: 0.847 | Cell Viability ([3]; C (μM): Taxol + Rg5 25 + 150, Taxol 25, Blank Rg5 150, Abraxane 25): 0.304 | Cell Viability ([3]; C (μM): Taxol + Rg5 100 + 600, Taxol 100, Blank Rg5 600, Abraxane 100): 0.198 | Cell Viability ([3]; C (μM): Taxol + Rg5 200 + 1200, Taxol 200, Blank Rg5 1200, Abraxane 200): 0.174
